## Binding of CDR-mutated scFvs to a peptide of the spike HR2 region

Antigen: PDVDLGDISGINAS, a 14-residue peptide of the SARS-CoV-2 spike HR2 region.

Each scFv is VH, a 15-residue (Gly4Ser)3 linker, VL, as in the parent Ab-14, and differs from it in the CDRs of the light chain only.
VH: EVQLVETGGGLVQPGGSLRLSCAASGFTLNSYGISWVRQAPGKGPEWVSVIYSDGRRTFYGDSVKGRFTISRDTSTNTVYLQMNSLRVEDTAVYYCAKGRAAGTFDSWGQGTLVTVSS
VL: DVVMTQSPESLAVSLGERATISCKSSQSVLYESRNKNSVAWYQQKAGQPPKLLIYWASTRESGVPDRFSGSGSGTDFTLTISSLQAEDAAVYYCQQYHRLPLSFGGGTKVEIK

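The variants were designed computationally from a first round of random CDR variants and then made and measured. Several design methods are mixed in this list. AlphaSeq pools MATa yeast showing the antibodies with MATalpha yeast showing the peptide. After mating in shaken culture at 30 °C for 16 h, diploids were selected and their barcode pairs sequenced. Scores were corrected for input abundance and mapped to Kd with protein pairs of known affinity run in the same pool. The assay was run in six technical replicates.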

Changes read parent residue, position, new residue, counted from the first residue of the VL shown. Variants here have at most six changes. Each Kd is an estimate from the mating assay, the geometric mean of the replicates in which the pair was seen; lower is stronger. A pair that was not seen in any replicate is written "nd"; this usually means weak binding, but a binder can also be missed. Empty control strains, which show no peptide, gave a signal in 4% of pairings with all light chain designs; the median was 430 nM and 95% of these signals were weaker than 38 nM. No background was subtracted. The range of this assay differs from that of the first round, and the authors advise against merging the two. The authors averaged sequences with at least three values out of six and counted those with two or fewer as poor binders. Of ten entries with the parent sequence, four were seen in most replicates (averages 2.2 nM to 240 nM), three in one and three in none, so single entries are noisy.

Variant V29W W56H T59Q S62Q showed 1.2 nM (6 of 6 replicates).
Variant S25L S33W W56G S58V T59R S62A showed 17 nM (6 of 6 replicates).
Variant K24Q V29W E32N showed 1.5 µM (3 of 6 replicates).
Variant S25F N35T W56E R99Q showed 1.2 nM (6 of 6 replicates).
Variant V29I Y31D V39I W56T showed 15 nM (6 of 6 replicates).
Variant K24L L100V L102E showed nd (0 of 6 replicates).
Variant S26Q Q27C S28G W56G showed 1.8 nM (6 of 6 replicates).
Variant Q27I V29W W56G S62K showed 1.0 nM (6 of 6 replicates).
Variant S25L W56S E61C showed 1.1 nM (6 of 6 replicates).
Variant S25L S26P V29F W56N showed 390 pM (6 of 6 replicates).
Variant Q27F K36A showed 94 nM (5 of 6 replicates).
Variant V29L V39I S58T Q95P L100K showed nd (0 of 6 replicates).
Variant R34T K36L showed 13 nM (6 of 6 replicates).
Variant S25L N35M K36P W56N showed 410 pM (6 of 6 replicates).
Variant S26Q L30P W56N T59L E61C showed 170 nM (5 of 6 replicates).
Variant Q27Y S28M W56E Y97D showed nd (0 of 6 replicates).
Variant S25L Q27E V29N W56E showed 6.5 nM (6 of 6 replicates).
Variant W56Q Y97P H98I showed 4.6 nM (6 of 6 replicates).
Variant S25L S26R V29T L30N W56N Q96I showed 2.3 nM (6 of 6 replicates).
Variant V29K K36F showed 88 nM (4 of 6 replicates).
Variant S25L S26L V29T E61L showed 27 nM (6 of 6 replicates).
Variant K24Q Q27D R34M W56N showed 3.4 nM (6 of 6 replicates).
Variant S26G Q27K S28G V39P W56G L100E showed nd (0 of 6 replicates).
Variant S25L S38P V39I S62L Y97E showed nd (0 of 6 replicates).
Variant S25L W56G T59H showed 1.6 nM (6 of 6 replicates).
Variant K24V Y31N W56D showed 4.1 nM (6 of 6 replicates).
Variant S26L Y31C S38E W56H S62D showed nd (0 of 6 replicates).
Variant S25F V29Y L30H W56G showed 2.2 nM (6 of 6 replicates).
Variant S25M V29N W56N T59Q showed 720 pM (6 of 6 replicates).
Variant S33G R99M showed 71 nM (6 of 6 replicates).
Variant S28L V29H R34S S103D showed 100 nM (1 of 6 replicates).
Variant S25L S26Q V29E W56N T59Y showed 1.1 nM (6 of 6 replicates).
Variant Q27E V29A R99N showed 84 nM (1 of 6 replicates).
Variant S25W Q27D T59E Q96S Y97I showed 34 nM (1 of 6 replicates).
Variant R34E W56E E61A Q96S R99F S103H showed 70 nM (6 of 6 replicates).
Variant S25F S26L S28Q V29L L30W K36H showed 44 nM (1 of 6 replicates).
Variant S25V S26L V29Q L30E W56H S62D showed 3.6 nM (6 of 6 replicates).
Variant V29E Y31G W56D showed 1.4 nM (6 of 6 replicates).
Variant R34V showed 20 nM (5 of 6 replicates).
Variant S25V S33D S38A W56N T59Q showed 770 pM (6 of 6 replicates).
Variant K24T E61A showed 64 nM (3 of 6 replicates).
Variant N35L S38V W56Q S58A T59Q showed nd (0 of 6 replicates).
Variant S25L V29D W56N T59Q S62E showed 730 pM (6 of 6 replicates).

Top 6 of the variants detected in all replicates, tightest first:

Variant S25L S26P V29F W56N gave 390 pM (6 of 6 replicates).
Variant S25L N35M K36P W56N gave 410 pM (6 of 6 replicates).
Variant S25M V29N W56N T59Q gave 720 pM (6 of 6 replicates).
Variant S25L V29D W56N T59Q S62E gave 730 pM (6 of 6 replicates).
Variant S25V S33D S38A W56N T59Q gave 770 pM (6 of 6 replicates).
Variant Q27I V29W W56G S62K gave 1.0 nM (6 of 6 replicates).

Values reported by Li et al. 2023, doi:10.1038/s41467-023-39022-2 (FLAb copy).